# Ab-14 heavy chain CDR variants: yeast mating affinities

All variants were tested on one target, the spike HR2 peptide PDVDLGDISGINAS (SARS-CoV-2).

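AAYL49 was designed without a model: most single CDR substitutions and a random sample of double and triple ones. In AlphaSeq, yeast of one mating type display the scFv and yeast of the other type display the target. After mating in shaken culture at 30 °C for 16 h, diploids were selected and their barcode pairs sequenced. The ratio of observed to expected reads was calibrated, replicate by replicate, on BCL2-family standards whose Kd was known from biolayer interferometry. The assay was run in three technical replicates.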

Parent scFv Ab-14: VH joined to VL by the linker GGGGSGGGGSGGGGS. Changes lie in the heavy chain CDRs alone.
VH: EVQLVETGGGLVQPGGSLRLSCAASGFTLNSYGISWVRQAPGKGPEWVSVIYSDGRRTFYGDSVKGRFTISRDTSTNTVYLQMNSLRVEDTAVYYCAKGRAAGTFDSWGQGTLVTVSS
VL: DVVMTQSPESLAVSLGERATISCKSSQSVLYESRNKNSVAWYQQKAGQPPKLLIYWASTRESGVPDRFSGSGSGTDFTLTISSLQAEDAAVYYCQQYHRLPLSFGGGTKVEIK

Each variant is given by its three heavy chain CDRs, as the data file delimits them; those of the parent are GFTLNSYGIS, VIYSDGRRTFYGDSVK, GRAAGTFDS. The read-out is the apparent dissociation constant on a log10 scale (nM): the lower, the stronger. The mean shown is taken over the replicates in which the pair was detected. Where no diploid with the target was found in that replicate, the entry reads "nd": below detection, most likely a poor binder, though not proof of it.

CDR-H1	CDR-H2	CDR-H3	replicates, log10 nM	mean, log10 nM	control signals
GFQLNSYGIS	VIYSDGRATFYGHSVK	GRAAGTFDS	nd / nd / 3.97	3.97	1 of 9 (4.09)
GFTLCSYGIS	RIYSDGRRTFYGDSVK	GRARGTFDS	nd / nd / nd	nd	2 of 9 (4.14)
GFTLFSYGIQ	VIYSDGRRTFYGDSVK	GRAAGTQDS	nd / nd / nd	nd	0 of 9
GFTLNSYGIS	VIYSDGRRCFYGDIGK	GRAAGTFDS	nd / nd / nd	nd	1 of 9 (2.26)
GFTLNSYGIS	VIYYDGRRAFYGDSVK	GRAAGTFDS	2.50 / 2.19 / 2.87	2.52	1 of 9 (3.94)
GFTLNSMGIS	VIYSDGRRTFYGDSVK	GMAAGTFDD	nd / nd / nd	nd	1 of 9 (3.37)
GFTLNSYGID	VIYSDGRRTFRGDSKK	GRAAGTFDS	nd / nd / nd	nd	0 of 9
GFTYNSYGIS	VIYSIGRRTFYGQSVK	GRAAGTFDS	4.91 / nd / 4.87	4.89	2 of 9 (4.21)
GFTLNSYGIS	VIWSDGQRTFYGDSVK	GRAQGTFDS	nd / nd / nd	nd	3 of 9 (4.89)
GFTANSYGIS	VIYSDGDRTFHGDSVK	GRAAGTFDS	4.25 / nd / nd	4.25	2 of 9 (4.64)
GFTLNSKGIS	VIYSYGRRTFYGDSVK	GRAPGTFDS	nd / nd / nd	nd	1 of 9 (3.96)
GMTLNSYGIS	VIYSDGRRTFYGDSVK	GRAAGTFDG	nd / 2.85 / nd	2.85	0 of 9
GFTLNSYGIS	VNYSDGRRTTYGDSVK	GTAAGTFDS	nd / 5.37 / 3.65	4.51	2 of 9 (4.58)
GFTLNSYGIS	VIYSPGRRTFYGDLVK	GRAAGTCDS	nd / 5.31 / 3.96	4.63	6 of 9 (4.57)
GFTLNSYGIS	VAYSDGRRTFYGDSVK	GRAAGFFDS	2.97 / nd / nd	2.97	1 of 9 (2.81)
GFTLNSYYIS	VDYSDGRRTFYGDSVK	SRAAGTFDS	5.15 / 3.68 / nd	4.42	1 of 9 (3.25)
GFTWNSYGIS	VLYSDGRRTFYGASVK	GRAAGTFDS	nd / nd / 3.88	3.88	0 of 9
GFTLNSYGIS	VIYSTGRRTFYGDSVK	GRAAFTFDS	nd / nd / nd	nd	1 of 9 (4.14)
GFTLNSYNIS	VISSDGRRTFYGDSVK	GRAAGTFGS	2.81 / nd / nd	2.81	2 of 9 (4.08)
GFTLNSYGPS	VIYSDGRRRFYGDSCK	GRAAGTFDS	nd / 5.20 / 4.91	5.06	3 of 9 (4.27)
GFTLESYGIS	VIYSDGRRTFYGVSVK	GRAAGTFDS	3.77 / 2.83 / 2.83	3.14	1 of 9 (3.84)
GFTLTSYVIS	VIYSDGRRTFYVDSVK	GRAAGTFDS	nd / nd / nd	nd	0 of 9
GFTLNSQGNS	VIYSDGRCTFYGDSVK	GRAAGTFDS	nd / 3.73 / nd	3.73	1 of 9 (2.96)
GFTLNSYGIS	VIASDGRRTFYGDSVK	GRFAGTFDS	3.87 / nd / 2.93	3.40	1 of 9 (3.92)
GFTLNSYGIS	VHRSDGRRTFYWDSVK	GRAAGTFDS	nd / 4.01 / 4.28	4.14	2 of 9 (4.70)
GFTLNSYGIS	VIYSDGRRTFYRSSRK	GRAAGTFDS	nd / nd / nd	nd	0 of 9
GFTLNSYGIS	VIYSDGRRTFYGESVK	GRAAPTFDS	nd / nd / nd	nd	0 of 9
GFTFNSYGIS	VIYSDGRRTFKGDSMK	GRAAGTFDS	nd / nd / nd	nd	1 of 9 (2.77)
GFTLNSYGIS	VIYSDGRRTFYGDSVK	GRAAGPFDS	nd / nd / 4.17	4.17	0 of 9
GFTLNSYGIS	VIYSDGRRTFYGDGVK	GRAAGTFDS	1.10 / 1.17 / 1.09	1.12	3 of 9 (4.28)
GFTLNSYGIM	VIYPDGRRTFYGDPVK	GRAAGTFDS	nd / nd / nd	nd	1 of 9 (3.36)
GFTLNSYGIS	FIYSDGTRTFYGDSVK	GRAASTFDS	nd / 4.44 / nd	4.44	0 of 9
GFTLNSYGIV	VIYSDGRRTFYGDSVK	GRAAGGFAS	nd / nd / nd	nd	0 of 9
GFTLNSYGIS	TIYSDGRRTEWGDSVK	GRAAGTFDS	nd / 4.24 / 5.74	4.99	1 of 9 (3.90)
GLTLMSYGIS	VIYSDGRRTFYGDMVK	GRAAGTFDS	2.42 / 2.18 / 2.08	2.23	0 of 9
GFLLNSYGIS	VIYSDGRRTFYGDSVT	GIAAGTFDS	3.44 / 3.22 / nd	3.33	2 of 9 (3.55)
TFTLNSYGIS	VIYSDGRRTFFGDSVK	GRAAGTFDI	nd / nd / nd	nd	0 of 9
GFTLNSYGIS	VIYSDGWKFFYGDSVK	GRAAGTFDS	nd / 4.05 / nd	4.05	0 of 9
GFTLNSYGIS	VIYSDGRRTFYGDSAP	GRAAGTFDS	nd / nd / nd	nd	0 of 9
GFTLNSYGIS	VIYSIRRDTFYGDSVK	GRAAGTFDS	nd / nd / nd	nd	0 of 9
GFTLNFYGIS	VIVSDGRRTFYGDSVK	GRAANTFDS	4.58 / 5.60 / nd	5.09	4 of 9 (4.78)
GFTLWSYGHS	VIYSDGRRTFYGDSVK	GRAPGTFDS	3.17 / 2.16 / 2.98	2.77	6 of 9 (4.16)
GFTTNSYGIS	SIYSDWRRTFYGDSVK	GRAAGTFDS	3.93 / 3.94 / 4.82	4.23	8 of 9 (3.97)

Nonspecific signal, from three strains lacking the peptide, appeared in 15% of pairings of library AAYL49, centred on 4.06 (5% of these signals below 2.83); values are not corrected for it. The control count says in how many pairings with the empty strains this scFv gave a signal, with their mean in brackets. For reference, the parent read 0.65 as the reference entry and 4.11 (one replicate of three) as a member of this library.

Reference: Engelhart et al. 2022, doi:10.1038/s41597-022-01779-4. File: FLAb, binding data.